Source: US20250320214A1, “ORGANIC COMPOUNDS” (INTRA-CELLULAR THERAPIES, INC., priority 2022, published 2025)

Amino acid sequences for entries named in this document (tags omitted). Residues count along the entry.
UniProt P21728, whole entry: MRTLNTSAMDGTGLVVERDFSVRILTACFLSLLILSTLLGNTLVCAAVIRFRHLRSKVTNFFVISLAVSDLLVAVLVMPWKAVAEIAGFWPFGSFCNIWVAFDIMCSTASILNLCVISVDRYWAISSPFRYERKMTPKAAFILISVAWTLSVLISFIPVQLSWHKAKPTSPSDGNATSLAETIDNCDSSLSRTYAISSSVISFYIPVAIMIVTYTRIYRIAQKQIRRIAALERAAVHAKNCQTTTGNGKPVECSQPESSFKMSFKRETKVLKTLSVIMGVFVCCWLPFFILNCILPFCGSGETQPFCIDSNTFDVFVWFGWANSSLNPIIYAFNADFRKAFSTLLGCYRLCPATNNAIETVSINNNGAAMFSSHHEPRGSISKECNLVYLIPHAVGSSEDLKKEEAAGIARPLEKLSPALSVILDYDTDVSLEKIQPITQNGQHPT
UniProt P35372, whole entry: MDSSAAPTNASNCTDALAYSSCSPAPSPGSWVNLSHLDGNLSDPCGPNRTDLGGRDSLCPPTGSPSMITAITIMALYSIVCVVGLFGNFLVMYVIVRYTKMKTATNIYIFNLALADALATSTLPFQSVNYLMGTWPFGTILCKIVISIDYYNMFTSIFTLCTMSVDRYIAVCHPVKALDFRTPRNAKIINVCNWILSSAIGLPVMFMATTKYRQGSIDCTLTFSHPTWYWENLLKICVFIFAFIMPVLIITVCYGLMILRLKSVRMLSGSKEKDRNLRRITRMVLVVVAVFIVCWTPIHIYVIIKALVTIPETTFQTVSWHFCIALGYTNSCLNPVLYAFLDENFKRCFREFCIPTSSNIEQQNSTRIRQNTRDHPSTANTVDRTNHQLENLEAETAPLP
UniProt P14416, 1-414 isoform 2: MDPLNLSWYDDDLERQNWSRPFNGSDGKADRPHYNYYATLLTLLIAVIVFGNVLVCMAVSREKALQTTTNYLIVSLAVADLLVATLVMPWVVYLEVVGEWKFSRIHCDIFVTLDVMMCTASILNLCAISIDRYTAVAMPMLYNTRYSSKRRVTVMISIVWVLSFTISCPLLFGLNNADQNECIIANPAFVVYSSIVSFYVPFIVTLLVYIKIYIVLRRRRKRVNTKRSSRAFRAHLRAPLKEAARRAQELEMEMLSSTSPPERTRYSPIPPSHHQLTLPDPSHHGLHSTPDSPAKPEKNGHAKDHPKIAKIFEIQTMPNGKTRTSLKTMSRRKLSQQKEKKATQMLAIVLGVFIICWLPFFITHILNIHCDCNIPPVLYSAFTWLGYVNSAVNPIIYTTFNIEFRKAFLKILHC
UniProt P28223, whole entry: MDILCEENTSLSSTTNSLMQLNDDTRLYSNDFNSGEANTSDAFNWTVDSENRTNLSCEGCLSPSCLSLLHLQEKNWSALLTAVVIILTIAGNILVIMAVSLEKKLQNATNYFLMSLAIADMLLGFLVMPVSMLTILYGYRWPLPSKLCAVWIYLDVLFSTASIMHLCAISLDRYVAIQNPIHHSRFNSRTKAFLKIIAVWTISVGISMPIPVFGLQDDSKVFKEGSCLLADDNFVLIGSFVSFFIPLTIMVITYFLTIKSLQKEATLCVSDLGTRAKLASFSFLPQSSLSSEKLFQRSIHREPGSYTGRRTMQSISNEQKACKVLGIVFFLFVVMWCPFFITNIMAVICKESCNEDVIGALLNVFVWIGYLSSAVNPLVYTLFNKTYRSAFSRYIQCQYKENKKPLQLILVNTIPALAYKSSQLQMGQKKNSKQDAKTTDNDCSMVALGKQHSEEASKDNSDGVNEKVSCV
UniProt P31645, whole entry: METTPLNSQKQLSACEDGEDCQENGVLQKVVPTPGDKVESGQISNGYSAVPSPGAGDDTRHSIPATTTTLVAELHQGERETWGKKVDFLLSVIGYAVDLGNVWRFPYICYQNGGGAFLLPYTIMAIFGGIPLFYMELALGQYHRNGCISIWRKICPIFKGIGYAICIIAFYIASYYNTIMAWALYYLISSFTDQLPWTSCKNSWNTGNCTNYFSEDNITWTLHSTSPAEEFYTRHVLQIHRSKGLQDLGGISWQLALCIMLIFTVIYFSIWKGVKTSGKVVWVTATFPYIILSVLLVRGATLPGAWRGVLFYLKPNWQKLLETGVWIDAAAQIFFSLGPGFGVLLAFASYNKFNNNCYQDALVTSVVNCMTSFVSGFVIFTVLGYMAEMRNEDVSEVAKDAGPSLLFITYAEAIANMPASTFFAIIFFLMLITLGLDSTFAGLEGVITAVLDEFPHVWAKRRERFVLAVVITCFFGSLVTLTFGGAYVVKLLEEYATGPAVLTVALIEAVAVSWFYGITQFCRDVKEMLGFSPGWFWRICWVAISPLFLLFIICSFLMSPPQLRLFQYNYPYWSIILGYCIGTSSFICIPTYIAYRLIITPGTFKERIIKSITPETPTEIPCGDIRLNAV

What was measured:
D1 = D1 (Homo sapiens, UniProt P21728); assay: Receptor binding, D1; details: read-out: D1 Ki
Mu opioid receptor = Mu opioid receptor (Homo sapiens, UniProt P35372); assay: Receptor binding, Mu opioid receptor; details: read-out: Mu Ki
D2 = D2 (Homo sapiens, UniProt P14416); assay: Receptor binding, D2; details: read-out: D2 Ki
5-HT2A = 5-HT2A (Homo sapiens, UniProt P28223); assay: Receptor binding, 5-HT2A; details: read-out: 5-HT2A Ki
SERT = SERT (Homo sapiens, UniProt P31645); assay: Receptor binding, SERT; details: read-out: SERT Ki

`Nc1cc(F)ccc1OCCCN1CC[C@H]2[C@@H](C1)c1cccc3c1N2CC(=O)N3` was tested. Which Ki (D1) did it give?
Its Ki is 16 nM.

And the Ki (Mu opioid receptor)?
The Ki was 4.1 nM.

And the Ki (D2)?
Its Ki is 1 nM.

And the Ki (5-HT2A)?
Its Ki is 0.34 nM.

And the Ki (SERT)?
The Ki was 60 nM.
